The source of these data is PubChem BioAssay AID602248 (The Scripps Research Institute Molecular Screening Center, 2012).

The entries are a selection whose mix differs from that of the whole data set. Some salts and complexes are drawn in separate pieces, as the source files them; their charges need not balance. Activity calls are given as the source filed them. No stated cut-off is given here; in the data, active means activation above about 15%; inactive means the rest.

This experiment can be described thus: counter-screen for M1 agonists: effect in parental CHO-K1 cells (AID 602248).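 Further: untransfected CHO-K1 host cells lacking M1 receptor as counterscreen.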 To be noted: Fluo-8 calcium fluorescence, at 3 µM, hits give high values, scaled to maximal ATP response, vehicle zero. In general terms: A counterscreen serves to expose hits that act by an unwanted route or on another target.
In the case of `CCCCOc1ccc(C(=O)NCC2(N3CCCCC3)CCCCC2)cc1OC`, the activation is inactive: 1.1%.
The value for `CP(=O)(Nc1ccc(SC(F)(F)F)cc1)Oc1ccccc1` (configuration not stated) was inactive: 2.47%.
The value for `CCCOc1ccc(NP(C)(=O)Oc2ccc(Cl)cc2)cc1` (configuration not stated) was inactive: 0.26%; that for `COc1ccc(-c2ccccn2)cc1.O=[N+]([O-])c1cc([N+](=O)[O-])c(O)c([N+](=O)[O-])c1` was inactive: 0.4%.
As for `CN1CCCCC1COC(=O)C1(O)c2ccccc2CCc2ccccc21` (configuration not stated), the activation is inactive: 0.73%.
In the case of `COc1ccccc1OP(C)(=O)Nc1c(C)cccc1C` (configuration not stated) it was inactive: 1.13%; in that of `CCOC(=O)C(CC)C1=NC(C)(C)Cc2ccccc21.O=[N+]([O-])c1cc([N+](=O)[O-])c(O)c([N+](=O)[O-])c1` (configuration not stated), inactive: -0.27%.
In the case of `O=[N+]([O-])c1cc([N+](=O)[O-])c(Nc2nnnn2CCO)c([N+](=O)[O-])c1`, the activation is inactive: 1.6%.
The value for `CC1=C2N=C(C=C3N=C(C(C)=C4[N-][C@@](C)([C@@H]5N=C1[C@](C)(CCC(=O)NC[C@@H](C)OP(=O)([O-])O[C@H]1[C@@H](O)[C@@H](n6cnc7cc(C)c(C)cc76)O[C@@H]1CO)[C@H]5CC(N)=O)[C@@](C)(CC(N)=O)[C@@H]4CCC(N)=O)[C@@](C)(CC(N)=O)[C@@H]3CCC(N)=O)C(C)(C)[C@@H]2CCC(N)=O.[C-]#N.[Co+3]` was inactive: 0.5%.
On to `CN(C)C1(CNC(=O)c2ccc(S(C)(=O)=O)cc2)CCCCC1`, for which the activation was inactive: 0.46%.
In the case of `Cc1nc2ccc3ccccc3c2s1.O=[N+]([O-])c1cc([N+](=O)[O-])c(O)c([N+](=O)[O-])c1` it was inactive: 0.32%; in that of `O=[N+]([O-])c1cc([N+](=O)[O-])c(-c2cnn(-c3ccccc3)c2)c([N+](=O)[O-])c1`, inactive: 2.63%; in that of `CN(Cc1cccnc1)C(=O)COc1ccc(Cl)c(Cl)c1.O=[N+]([O-])c1cc([N+](=O)[O-])c(O)c([N+](=O)[O-])c1`, inactive: 2.07%.
The value for `O=[N+]([O-])c1cc([N+](=O)[O-])c(-n2nnc3ccccc32)c([N+](=O)[O-])c1` was inactive: -0.58%.
Turning to `CP(=O)(Nc1cccc(Br)c1)Oc1ccccc1` (configuration not stated), the activation was inactive: 1.81%.
As to `Cc1cc(C)cc(OP(C)(=O)Nc2ccccn2)c1` (configuration not stated), the activation is inactive: -0.31%.
On to `Cc1ccc(C)c(NP(C)(=O)Oc2ccccc2)c1` (configuration not stated), for which the activation was inactive: 0.47%.
The value for `Cc1cc(C)cc(OP(C)(=O)Nc2ccc(C)cc2C)c1` (configuration not stated) was inactive: 1.05%; that for `CCOC(=O)c1ccc(NP(C)(=O)Oc2cc(C)cc(C)c2)cc1` (configuration not stated) was inactive: 0.59%; that for `COc1ccccc1OP(C)(=O)Nc1cccc(Br)c1` (configuration not stated) was inactive: 0.44%.
With `COc1cc(C(=O)NCC2(N3CCOCC3)CCCCC2)cc(Cl)c1OC(C)C`, the activation was inactive: -0.36%.
In the case of `CC1=NCCc2c1[nH]c1ccccc21.O=[N+]([O-])c1cc([N+](=O)[O-])c(O)c([N+](=O)[O-])c1`, the activation was inactive: 0.37%.
Take `O=C(O)c1cccc(Nc2c([N+](=O)[O-])cc([N+](=O)[O-])cc2[N+](=O)[O-])c1`: the activation is inactive: 0.87%.
Turning to `CCCCCOc1ccc(NP(C)(=O)Oc2ccc(Cl)cc2Cl)cc1` (configuration not stated), the activation was inactive: 9%.
The value for `O=[N+]([O-])c1cc([N+](=O)[O-])c(OC2CCCCC2O)c([N+](=O)[O-])c1` (configuration not stated) was inactive: 0.7%.
As to `CP(=O)(Nc1ccccc1)Oc1ccc(F)cc1` (configuration not stated), the activation is inactive: 0.9%.
The value for `CCN(CC)CCCOC(=O)C(O)(c1ccccc1)C1CCCCC1` (configuration not stated) was inactive: 0.99%; that for `Cc1c([N+](=O)[O-])cc([N+](=O)[O-])c(Br)c1[N+](=O)[O-]` was inactive: -0.08%.
The value for `COc1ccc(OP(C)(=O)Nc2ccc(SC(F)(F)F)cc2)cc1` (configuration not stated) was inactive: 3.55%; that for `CCOC(=O)c1ccc(NP(C)(=O)Oc2ccc(F)cc2)cc1` (configuration not stated) was inactive: 1.26%.
As to `CCN(CC)CCCNc1ccccc1[N+](=O)[O-].O=[N+]([O-])c1cc([N+](=O)[O-])c(O)c([N+](=O)[O-])c1`, the activation is inactive: 0.48%.
Consider `COc1ccc2c(c1O)-c1c(O)c(OC)cc3c1[C@H](C2)[N+](C)(C)CC3.O=[N+]([O-])c1cc([N+](=O)[O-])c([O-])c([N+](=O)[O-])c1[O-]`, for which the activation was inactive: 0.07%.
Consider `O=C(OCCN1CCN(CCOCc2ccccc2)CC1)C(O)(c1ccccc1)c1ccccc1`, for which the activation was inactive: 3.51%.
Regarding `O=C(OC1CN2CCC1CC2)c1ccc([N+](=O)[O-])cc1` (configuration not stated), the activation is inactive: 0.14%.
The value for `CC(C)c1ccc(OP(C)(=O)Nc2ccc(SC(F)(F)F)cc2)cc1` (configuration not stated) was inactive: 0.04%.
Consider `CP(=O)(Nc1ccccc1F)Oc1ccccc1` (configuration not stated), for which the activation was inactive: 0.02%.
The value for `O=[N+]([O-])c1cc([N+](=O)[O-])c(Nc2ccc(Cl)cc2)c([N+](=O)[O-])c1` was inactive: 11.8%; that for `O=[N+]([O-])c1cc([N+](=O)[O-])c(C(F)(F)F)c([N+](=O)[O-])c1O` was inactive: 0.16%.
Take `Cc1ccccc1NP(C)(=O)Nc1ccccc1C`: the activation is inactive: 0.23%.
The value for `CP(=O)(Nc1ccc2c(c1)OCCO2)Oc1ccccc1` (configuration not stated) was inactive: 2.18%.
In the case of `CCOP(C)(=S)SCC(=O)NC(C)(CC)C(=O)O` (configuration not stated) it was inactive: 0.37%.
In the case of `CP(=O)(Nc1ccc(SC(F)(F)F)cc1)Oc1ccc(F)cc1` (configuration not stated) it was inactive: 4.23%; in that of `Cc1c(C(c2ccc3c(c2)OCO3)c2c(C)n(C)n(-c3ccccc3)c2=O)c(=O)n(-c2ccccc2)n1C.O=[N+]([O-])c1cc([N+](=O)[O-])c(O)c([N+](=O)[O-])c1`, inactive: 0.96%.
As to `O=[N+]([O-])c1cc([N+](=O)[O-])c(NCC2CCS(=O)(=O)C2)c([N+](=O)[O-])c1` (configuration not stated), the activation is inactive: 1.29%.
In the case of `Cc1cc(-c2cccc3ccccc23)c(C)cn1.O=[N+]([O-])c1cc([N+](=O)[O-])c(O)c([N+](=O)[O-])c1` it was inactive: -0.35%.
The value for `O=[N+]([O-])c1ccc(OP2(=O)COCCO2)cc1` (configuration not stated) was inactive: 0.74%.
`COc1ccc(NP(C)(=O)Oc2ccccc2OC)cc1` (configuration not stated): the activation was inactive: 0.27%.
The value for `CN(C)CCOC(=O)C(O)(c1ccccc1)C1CCCCC1` (configuration not stated) was inactive: 11.1%; that for `CN(C)C1(CNC(=O)c2ccc(Cl)c(S(N)(=O)=O)c2)CCCCC1` was inactive: 1.6%.
The value for `COc1ccc(OP(C)(=O)Nc2cccc(Br)c2)cc1` (configuration not stated) was inactive: -0.21%.
In the case of `CP(=O)(OC12CC3CC(CC(C3)C1)C2)OC12CC3CC(CC(C3)C1)C2` it was inactive: 2.66%.
`CCOC(=O)c1ccc(NP(C)(=O)Oc2ccc(Cl)cc2)cc1` (configuration not stated): the activation was inactive: 1.32%.
In the case of `CN(C)C(=O)c1c([N+](=O)[O-])cc([N+](=O)[O-])cc1[N+](=O)[O-]` it was inactive: 0.34%; in that of `CP(=O)(Nc1ccc(Cl)cc1)Oc1ccc(F)cc1` (configuration not stated), inactive: 0.89%.
On to `CC(C)(C)c1ccc(OP(C)(=O)O)cc1`, for which the activation is inactive: 1.05%.
Turning to `COc1ccccc1OP(C)(=O)Nc1ccccc1Br` (configuration not stated), the activation is inactive: -0.2%.
With `CCc1ccc(OP(C)(=O)Nc2cccnc2)cc1` (configuration not stated), the activation was inactive: -0.16%.
For the molecule `CP(=O)(Oc1ccccc1)N1CCOC1=O` (configuration not stated), the activation is inactive: 0.08%.
On to `O=C(OCCCN1CCCC1)C(O)(c1ccccc1)C1CCCCC1` (configuration not stated), for which the activation was inactive: 0.8%.
In the case of `COc1ccccc1OP(C)(=O)Nc1c(C)n(C)n(-c2ccccc2)c1=O` (configuration not stated) it was inactive: 0.17%; in that of `COc1ccc(OP(C)(=O)Nc2ccc(Br)cc2)cc1` (configuration not stated), inactive: 2.63%; in that of `CCN(CC)CC(O)COC(=O)C(O)(c1ccccc1)C1CCCCC1` (configuration not stated), inactive: 0.32%.
Turning to `CCc1ccc(OP(C)(=O)O)cc1`, the activation was inactive: -0.26%.
The value for `COc1ccccc1OP(C)(=O)Nc1ccc(C)cc1C` (configuration not stated) was inactive: -0.2%; that for `CP(=O)(Nc1ccccn1)Oc1ccccc1` (configuration not stated) was inactive: -0.18%.
In the case of `O=[N+]([O-])c1cc([N+](=O)[O-])c(Nc2ccccn2)c([N+](=O)[O-])c1` it was inactive: 3.69%; in that of `Cc1c(NP(C)(=O)Oc2ccc(C(C)C)cc2)c(=O)n(-c2ccccc2)n1C` (configuration not stated), inactive: 0.21%.
The value for `CN(C)CCOC(=O)C(O)(c1ccccc1)C1CCCC1` (configuration not stated) was inactive: 4.89%; that for `COc1ccc(OP(C)(=O)Nc2ccccn2)cc1` (configuration not stated) was inactive: 0.76%; that for `COc1ccccc1OP(C)(=O)Nc1ccc(Br)cc1` (configuration not stated) was inactive: 4.16%.
As for `CP(=O)(OCCOc1ccccc1)OCCOc1ccccc1`, the activation is inactive: 0.83%.
Turning to `CCCCCCCCCCCCCCCC1C[N+](C)(C)CCOP(C)(=O)O1` (configuration not stated), the activation is inactive: 3.36%.
With `CP(=O)(Nc1ccc(Cl)cc1Cl)Oc1ccccc1` (configuration not stated), the activation is inactive: 0.51%.
For `COc1ccc(OP(C)(=O)Nc2ccccc2Br)cc1` (configuration not stated), the activation was inactive: 0.56%.
Take `COc1ccccc1OP(C)(=O)Nc1ccc(C)c(C)c1` (configuration not stated): the activation was inactive: 0.57%.
Turning to `Cc1cc(C)cc(OP(C)(=O)Nc2cccc(C(F)(F)F)c2)c1` (configuration not stated), the activation is inactive: -0.3%.
The value for `O=C1C(O)=C([N+](=O)[O-])C(=O)C(O)=C1[N+](=O)[O-]` was inactive: 0.69%.
